Parameters: species or system New Zealand rabbits
Conditions: rabbit, in vivo, iv, 0.5 mg/kg
Procedure: In order to confirm that the synthesized BM23 peptide has a relatively long half-life, the half-life of BM23 peptide and BMP-2 in rabbits were detected by LC/MSMS method. LC/MSMS methodology was established, Finnigan TSQ Discovery Max LC/MS was equipped with Surveyor HPLC system. The detection limit was 1-1000 ng/ml, and the recovery rate was over 80%. Six New Zealand rabbits were randomly divided into two groups (three rabbits in each group). The two groups were intravenously injected with 0.5 mg/kg of BM23 peptide and 0.5 mg/kg of BMP-2, respectively; 0.5 ml of blood samples were taken at 5, 10, 15, 30, 60, 120, 180, 300 minutes and placed in an anticoagulant tube, respectively; and centrifuged at 2000 rpm to remove the blood plasma, and then stored at −20° C. for measurement. The blood concentration was measured by LC/MSMS method, 100 μl of blood plasma was taken, 500 μl of a mixed solvent containing IS 2000 ng/ml of acetonitrile and methanol solution at a ratio of 70:30 was added, shaken, and centrifuged at 12000 rpm for 10 minutes. 20 μl of supernatant was injected for LC/MSMS analysis. The main pharmacokinetic parameters were calculated by using 3P97 pharmacokinetic software.

**Q.** With “BMP-2: bone morphogenetic protein BMP-2, purchased from Beijing Yiqiao Shenzhou Biotechnology Co., Ltd.” as the substance, how does the half-life read?
**A.** Its half-life is 23 ± 11 min.
